{
  "source": "patent US8053197B2",
  "about": "“Methods for detecting and treating autoimmune disorders” (Oregon Health & Science University, priority 2004, dated 2011)",
  "molecules": {"B1": {"name": "Avonex®: interferon-beta 1a produced in Chinese Hamster Ovary cells, marketed by Biogen (protein, UniProt P01574 22-187, looked up)", "Interferon beta": "MSYNLLGFLQRSSNFQCQKLLWQLNGRLEYCLKDRMNFDIPEEIKQLQQFQKEDAALTIYEMLQNIFAIFRQDSSSTGWNETIVENLLANVYHQINHLKTVLEEKLEKEDFTRGKLMSSLHLKRYYGRILHYLKAKEYSHCAWTIVRVEILRNFYFINRLTGYLRN"}, "B2": {"name": "Betaseron®: interferon-beta 1b made in Escherichia coli, serine for cysteine at position 17 (protein, UniProt P01574 22-187, looked up)", "Interferon beta": "B1 Interferon beta"}, "B3": {"name": "Rebif®: interferon-beta 1a marketed by Serono, subcutaneous injection (protein, UniProt P01574 22-187, looked up)", "Interferon beta": "B1 Interferon beta"}},
  "key": {"[1]": {"tested_on": "CD4+CD25+ Treg cells", "assay": "Reversal of Treg activity of bead-sorted CD4+CD25+ T cells from PBMC", "type": "cell-based, human", "experimental": "All suppression assays were performed in 96-well round bottom plates (Becton Dickinson, Franklin Lakes, N.J.) in a final volume of 200 μl/well of 1% type AB human serum complete media (Bio Whittaker, Walkersville, Md.). Prior to assay setup, 18 wells each in the 96 well plates were coated with 100 μl of a final concentration of 2.0 μg/ml anti-CD3+ anti-CD28 mAbs, or 1.0, 0.5, and 0.1 μg/ml anti-CD3 mAb only (Caltag Labs, Burlingame, Calif.), and the plates were incubated overnight at 4° C. All wells were washed before assay setup. […] The cells were then harvested on glass fiber filters and assessed for uptake of the labeled thymidine by liquid scintillation. Percent suppression was determined at each mixed cell ratio compared to responses of CD4+CD25+ (suppressor cells) and CD4+CD25− T cells (indicator T cells) alone as follows:\nTo develop a standard procedure for assessing inhibitory activity of CD4+CD25+ Treg cells in vitro, CD4+CD25+ T cells isolated using a FACSVantage cell sorter (Becton Dickinson, Franidin Lakes, N.J.) versus magnetic beads were compared. […] The cells were stimulated with plate-bound anti-CD3+ anti-CD28 mAbs for 6 days at an optimal stimulatory concentration (0.2 μg/ml) in the absence of additional APC, and after 6 days, were assessed for proliferation responses using 3H-Tdy uptake. […]"}, "[2]": {"tested_on": "TCR reactive T cell lines", "assay": "Reversal of Treg activity of TCR reactive T cell lines", "type": "cell-based, human", "from_the_text": "To further test the association between TCR reactivity and Treg function, T cell lines specific for TCR determinants (Pool #1 peptides, CDR2 peptides from BV5S2, BV6S5, and BV13S1, or a soluble single chain AV23/BV6 protein) or control antigens (TT, ConA, or MOG peptide) were isolated and evaluated for suppressive activity."}, "[3]": {"tested_on": "multiple sclerosis", "conditions": "cited from earlier work"}},
  "data": [
    {"molecule": "IL-2: cytokine added to the Treg suppression assay", "values": [
      {"measurement": "reversal of Treg activity", "setting": "[1]", "value": "completely reversed"},
      {"measurement": "reversal of Treg activity", "setting": "[2]", "value": "reversed completely"}
    ]},
    {"molecule": "B1", "values": [
      {"measurement": "subjects with improved Expanded Disability Status Scale (EDSS) scores", "setting": "[3]; human, in vivo", "value": "approximately 22%"},
      {"measurement": "decrease in the number of gadolinium (Gd)-enhanced lesions", "setting": "[3]; subjects administered the drug for two years", "value": "up to 13%"}
    ]},
    {"molecule": "B2", "values": [
      {"measurement": "reduction of exacerbation rate", "setting": "[3]; according to Physicians' Desk Reference (1996)", "value": "about 31%"}
    ]},
    {"molecule": "B3", "values": [
      {"measurement": "reduction of relapse rates", "setting": "[3]; according to Samkoff 2002", "value": 33, "unit": "%"}
    ]}
  ]
}
